Results taken from US10214520B2, “Substituted azaspiro(4.5)decane derivatives” (priority 2014, dated 2019).
Read-outs that look alike come from different tables or passages of the source.

Sequences of proteins named here, by UniProt entry; tags and fusion partners are left off. A change or cut given only in a name is not applied to a line headed by its entry.
UniProt P35372, whole entry, looked up: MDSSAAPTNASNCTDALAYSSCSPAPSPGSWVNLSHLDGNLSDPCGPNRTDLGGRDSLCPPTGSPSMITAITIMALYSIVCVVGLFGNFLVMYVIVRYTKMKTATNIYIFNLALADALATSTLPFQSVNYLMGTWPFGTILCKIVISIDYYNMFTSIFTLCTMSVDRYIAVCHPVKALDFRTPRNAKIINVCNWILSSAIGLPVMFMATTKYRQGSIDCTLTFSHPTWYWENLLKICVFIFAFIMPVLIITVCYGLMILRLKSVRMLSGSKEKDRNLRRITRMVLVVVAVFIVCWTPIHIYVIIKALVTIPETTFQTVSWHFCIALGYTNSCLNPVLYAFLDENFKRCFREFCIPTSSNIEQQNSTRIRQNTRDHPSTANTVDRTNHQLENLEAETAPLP
UniProt P41146: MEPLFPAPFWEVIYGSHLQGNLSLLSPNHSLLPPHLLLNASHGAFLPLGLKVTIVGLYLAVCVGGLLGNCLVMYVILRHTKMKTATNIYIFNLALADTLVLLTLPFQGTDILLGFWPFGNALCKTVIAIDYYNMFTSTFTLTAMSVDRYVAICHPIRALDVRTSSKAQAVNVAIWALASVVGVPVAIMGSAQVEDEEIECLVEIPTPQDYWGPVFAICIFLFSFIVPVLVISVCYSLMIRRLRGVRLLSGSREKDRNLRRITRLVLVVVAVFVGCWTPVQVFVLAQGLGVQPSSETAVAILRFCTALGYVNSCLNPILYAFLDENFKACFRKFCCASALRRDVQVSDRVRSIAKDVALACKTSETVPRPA

Columns and labels:
[1] = target: human μ opiate receptor (Homo sapiens, UniProt P35372); experiment: μ opiate receptor binding assay with [3H]-naloxone, membrane preparation of CHO-K1 cells (WGA-SPA beads); conditions: for MOP % Inhibition @1 μM / % inhibition (μ) [1 μM]: test concentration 1 μM
[2] = target: ORL1 receptor (Homo sapiens, UniProt P41146); conditions: for ORL1 % Inhibition @ 1 μM / % inhibition (ORL1) [1 μM]: test concentration 1 μM
[3] = read-out: Ki (μ) mean [μm], mean
[4] = read-out: Ki (ORL1) mean [μm], mean

| Molecule | Ki ([1]; read-out: MOP Ki) [nM] | MOP % Inhibition @1 μM [1] [%] | Ki ([2]; read-out: ORL1 Ki) [nM] | ORL1 % Inhibition @ 1 μM [2] [%] | Ki [1, 3] [nM] | % inhibition (μ) [1 μM] [1] [%] | Ki [2, 4] [nM] | % inhibition (ORL1) [1 μM] [2] [%] |
| --- | --- | --- | --- | --- | --- | --- | --- | --- |
| CN(C)[C@]1(c2ccccc2)CC[C@]2(CC1)CC(=O)N(CCC(C)(C)C(=O)Nc1ccccc1)C2 | 5.4 | 98 | 23 | 83 |  |  |  |  |
| CN(C)[C@]1(c2ccccc2)CC[C@]2(CC1)CC(=O)N(CCCNC(=O)c1ccccn1)C2 | 24 | 98 | 92.5 | 67 |  |  |  |  |
| CN(C)C1(c2ccccc2)CCC2(CC1)CC(=O)N(CCC(C)(C)C(=O)NCc1ccncc1)C2 (stereo not shown) | 31.5 | 96 | 27.5 | 93 |  |  |  |  |
| COC(=O)CN1CC2(CCC(c3ccccn3)(N(C)C)CC2)CC1=O (stereo not shown) | 585 | 58 | 345 | 37 |  |  |  |  |
| CN(C)C(=O)CN(C)C(=O)CN1C[C@]2(CC[C@@](c3ccccc3)(N(C)C)CC2)CC1=O | 117 | 87 | 325 | 50 |  |  |  |  |
| CN(C)C1(c2ccccc2)CCC2(CCN(C(=O)c3ccncc3)C2)CC1 (stereo not shown) |  |  |  |  | 1160 | 46.5 | 605 | 21.5 |
| CN(C)C1(C2CCCC2)CCC2(CCN(Cc3ccccc3)C2)CC1 (stereo not shown) |  |  |  |  | 3.2 | 100 | 3.7 | 94 |
| CN(C)[C@]1(c2ccccn2)CC[C@]2(CC1)CC(=O)N(CCC(N)=O)C2 | 1760 | 39 |  | 19 |  |  |  |  |
| CN(C)[C@]1(c2ccccc2)CC[C@]2(CC1)CC(=O)N(CCC(C)(C)C(=O)NCCS(C)(=O)=O)C2 | 57.5 | 93 | 205 | 71 |  |  |  |  |
| CN(C)C1(c2ccccc2)CCC2(CCN(C(=O)CCc3cccnc3)C2)CC1 (stereo not shown) | 35.5 | 99 | 14.5 | 83 |  |  |  |  |
| CN(C)C1(c2cccs2)CCC2(CCN(C(=O)c3ccccn3)C2)CC1 (stereo not shown) |  |  |  |  | 79.5 | 77.5 | 110 | 45 |
| CN(C)[C@]1(c2ccccc2)CC[C@]2(CC1)CC(=O)N(CCCC(=O)O)C2 | 1990 | 42 | 1280 | 13 |  |  |  |  |
| CN(C)C1(c2ccccc2)CCC2(CCN(Cc3ccncc3)C2)CC1 (stereo not shown) |  |  |  |  | 96.5 | 76 | 89.5 | 57 |
| c1ccc(CN2CCC3(CCC(c4cccs4)(N4CCC4)CC3)C2)cc1 (stereo not shown) |  |  |  |  | 66.5 | 83 | 36.5 | 59.5 |
| CN(C)[C@]1(c2ccccc2)CC[C@]2(CC1)CC(=O)N(CCC(=O)Nc1ccccn1)C2 | 28 | 91 | 130 | 74 |  |  |  |  |
| CN(C)[C@]1(c2ccccc2)CC[C@]2(CC1)CC(=O)N(CC(=O)N1CCS(=O)(=O)CC1)C2 | 1.8 | 98 | 7.9 | 93 |  |  |  |  |
| CN1CCC(CC(=O)N2CCC3(CCC(c4ccccc4)(N(C)C)CC3)C2)CC1 (single isomer, unassigned) |  |  |  |  | 104 | 79 | 185 |  |
| CN(C)[C@]1(c2ccccc2)CC[C@]2(CC1)CC(=O)N(CC(=O)NCC(C)(C)C#N)C2 | 10.8 | 98 | 65.5 | 86 |  |  |  |  |
| CN(C)[C@]1(c2ccccc2)CC[C@]2(CC1)CC(=O)N(c1cnc(C(F)(F)F)nc1)C2 | 2 |  | 2.2 |  |  |  |  |  |

| Molecule | Ki ([1]; read-out: MOP Ki) [nM] | MOP % Inhibition @1 μM [1] [%] | Ki ([2]; read-out: ORL1 Ki) [nM] | ORL1 % Inhibition @ 1 μM [2] [%] | Ki [1, 3] [nM] | % inhibition (μ) [1 μM] [1] [%] | Ki [2, 4] [nM] | % inhibition (ORL1) [1 μM] [2] [%] |
| --- | --- | --- | --- | --- | --- | --- | --- | --- |
| CN(C)[C@]1(c2ccccc2)CC[C@]2(CC1)CC(=O)N(CCCNC(=O)c1ccccc1)C2 | 5.6 | 95 | 59.5 | 74 |  |  |  |  |
| Cc1ccc(C2(N(C)C)CCC3(CCN(c4ccccc4)C3)CC2)s1 (stereo not shown) |  |  |  |  | 6.85 | 89 | 18.5 | 63 |
| CN(C)[C@]1(c2ccccc2)CC[C@]2(CC1)CC(=O)N(CC(=O)Nc1ccncn1)C2 | 275 | 70 | 610 | 28 |  |  |  |  |
| CN1CCC(CCN2CC3(CCC(c4cccs4)(N(C)C)CC3)CC2=O)CC1 (stereo not shown) |  |  |  |  | 36 | 94.5 | 160 | 62.5 |
| CN(C)[C@]1(c2ccccc2)CC[C@]2(CC1)CC(=O)N(CC(=O)NCCC#N)C2 | 7 | 97 | 26 | 73 |  |  |  |  |
| cis-4-(8-Dimethylamino-3-oxo-8-pyridin-2-yl-2-azaspiro[4.5]decan-2-yl)-butyric acid methyl ester | 130 | 77 | 350 | 47 |  |  |  |  |
| CN(C)[C@]1(c2ccccc2)CC[C@]2(CC1)CC(=O)N(CC(C)(C)C(=O)NCCS(C)(=O)=O)C2 | 315 | 72 | 300 | 31 |  |  |  |  |
| CN(C)[C@]1(c2ccccn2)CC[C@]2(CC1)CC(=O)N(CCC(=O)O)C2 | 6580 | 14 |  | −6 |  |  |  |  |
| Cis-2-(8-Methylamino-3-oxo-8-pyridin-2-yl-2-azaspiro[4.5]decan-2-yl)-acetamide |  | 2 |  | 12 |  |  |  |  |
| cis-4-(8-Dimethylamino-3-oxo-8-phenyl-2-azaspiro[4.5]decan-2-yl)-2,2-dimethyl-butyric acid hydrochloride | 485 | 69 | 270 | 62 |  |  |  |  |
| CN(C)[C@]1(c2cnccn2)CC[C@]2(CC1)CC(=O)N(CCC(C)(C)C(N)=O)C2 | 250 | 61 | 230 | 44 |  |  |  |  |
| Cc1ccc(C2(N(C)C)CCC3(CCN(C(=O)c4ccncc4)C3)CC2)s1 (stereo not shown) |  |  |  |  | 97.5 | 67.5 | 335 | 39 |
| CN(C)[C@]1(c2ccccc2)CC[C@]2(CC1)CC(=O)N(CCCNC(=O)Cc1ccon1)C2 | 56.3 |  | 53.5 |  |  |  |  |  |
| CN(C)C(=O)CCN1CCC2(CCC(c3cccs3)(N(C)C)CC2)C1 (stereo not shown) |  |  |  |  | 4.45 | 94.5 | 11.6 | 91 |
| CN(C)[C@]1(c2ccccc2)CC[C@]2(CC1)CC(=O)N(CC(C)(C)C(=O)N1CCOC(CO)C1)C2 (stereo partly shown) | 113 | 87 | 220 | 56 |  |  |  |  |
| CN(C)C1(c2ccccc2)CCC2(CC1)CC(=O)N(Cc1ccccc1)C2 (stereo not shown) |  |  |  |  | 460 | 61 | 72 | 62.5 |
| CN(C)[C@]1(c2ccccc2)CC[C@]2(CC1)CC(=O)N(CCC(=O)NCCc1ccccc1)C2 | 4.9 | 100 | 16.5 | 91 |  |  |  |  |
| O=C(c1ccccc1)N1CCC2(CCC(c3ccccc3)(N3CCC3)CC2)C1 (stereo not shown) |  |  |  |  | 1110 | 34.5 | 1110 | 21.5 |
